# Values quoted from earlier work, collected in US20260373169A1, “SYNERGISTIC COMBINATION FOR THE TREATMENT OF CANCER” (FUNDACIÓN UNIVERSITARIA SAN ANTONIO (UCAM), priority 2023, published 2026).
# Read-outs that look alike come from different tables or passages of the source.
# Test system: MDA-MB-231 cells
# Settings: cited from earlier work
structure (smiles),measurement,setting,value
"COc1cccc2c1C(=O)c1c(O)c3c(c(O)c1C2=O)C[C@@](O)(C(=O)CO)C[C@@H]3O[C@H]1C[C@H](N)[C@H](O)[C@H](C)O1 [Doxorubicin, (7S,9S)-7-[(2R,4S,5S,6S)-4-amino-5-hydroxy-6 methyloxan-2-yl]oxy-6,9,11-trihydroxy-9-(2-hydroxyacetyl)-4-methoxy-8,10-dihydro-7H tetracene-5,12-dione]","cell viability, of untreated control",0.05 nM Doxorubicin alone,54%
same,"cell viability, of untreated control",0.1 nM Doxorubicin alone,48%
